Measured values from patent US5648336A (University of Colorado, priority 1994, dated 1997).

Sequences of proteins named here, by UniProt entry; tags and fusion partners are left off.
UniProt P30411, whole entry: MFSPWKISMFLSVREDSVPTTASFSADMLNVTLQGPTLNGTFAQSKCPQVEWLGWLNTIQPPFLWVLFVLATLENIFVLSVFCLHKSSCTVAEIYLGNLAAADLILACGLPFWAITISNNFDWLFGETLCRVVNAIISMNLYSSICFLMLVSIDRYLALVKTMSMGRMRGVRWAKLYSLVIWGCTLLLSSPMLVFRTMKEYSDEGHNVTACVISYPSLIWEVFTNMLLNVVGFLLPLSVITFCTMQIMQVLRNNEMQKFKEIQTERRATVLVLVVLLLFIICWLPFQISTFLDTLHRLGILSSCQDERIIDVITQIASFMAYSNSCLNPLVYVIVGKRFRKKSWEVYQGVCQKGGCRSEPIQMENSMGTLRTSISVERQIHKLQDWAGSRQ

Biological target: B2 receptor (Homo sapiens, UniProt P30411)
Test: cell-based

`NC(N)=NCCC[C@@H](N)C(=O)N[C@@H](CCCN=C(N)N)C(=O)N1CCC[C@H]1C(=O)N1C[C@H](O)C[C@H]1C(=O)NCC(=O)N[C@H](C(=O)N[C@@H](CO)C(=O)N[C@@H](C(=O)N1[C@H](C(=O)N[C@@H](CCCN=C(N)N)C(=O)O)C[C@@H]2CCCC[C@@H]21)C1Cc2ccccc2C1)C1Cc2ccccc2C1` [Compound 1, DArg-Arg-Pro-Hyp-Gly-Iglb-Ser-DIglb-O ic-Arg] was tested, and the Kb was 1.78 nM.
